MTD data for one compound are collected here from patent US20230125429A1, “TRIPTONIDE OR A COMPOSITION COMPRISING TRIPTONIDE FOR USE IN TREATING DISORDERS” (priority 2017, published 2023).

This data set can be described thus: Lethal dose and maximum tolerable dose in mice. Particulars: mouse, in vivo, oral; once every other day regimen. The method, then:
First, a preliminary experiment was carried out to determine the maximal non-toxic dose by administering an oral dose of Triptonide at 0, 5, 10, 25, 50, 100, 200 mg/kg body weight once every other day. […] Thus, a second preliminary experiment was carried out in tumor-bearing nude mice to determine whether an antitumor effect could be achieved within the non-toxic range. In the first set of the experiments, tumor-bearing mice were treated with 0, 1, 5, 10, 25 mg/kg Triptonide by gavage with the regimen of one dosage every other day. […] Thus, the 25 mg/kg once every other day regimen was selected for the preclinical experiment. The volumes of individual tumors were assessed by bioluminescent imaging.
Thus, we first determined the lethal dose and the maximum tolerable dose (MTD) of Triptonide for mice based on a once every other day regimen. […] It is noted that once every other day might not be the optimal scheme. Nonetheless, we decided to begin with this scheme and the 25% value of the MTD, i.e. 25 mg/kg.

Turning to `CC(C)[C@]12O[C@H]1[C@@H]1O[C@@]13[C@@]1(C)CCC4=C(COC4=O)[C@@H]1C[C@@H]1O[C@@]13C2=O` [Triptonide], the MTD (commonly the largest dose that counted as tolerated) at 4 days is 100 to 200 mg/kg.
